Results: patent US8425997B2, “Cobalt bearing polymeric compositions” (Umicore, priority 2008, dated 2013)

Test: Aqueous solubility (leaching) of Co, OECD-105 flask method
Format: physicochemical
Description: Experiments are performed to determine the aqueous solubility of the Co in the invented polymers. These tests are relevant as indicators for the bioavailability of Co.
[…] The leaching tests are conducted according to the OECD-105 standard flask method, as described in the OECD Guideline for the Testing of Chemicals, adopted on 27 Jul. 1995, and in the Official Journal of the European Communities L 383 A, 54-62 (1992).
The solubility of 3 typical polymers according to the invention is compared to that of 3 commercial products.

Co-boro-neo-decanoate
Solubility of Co in 0.9% NaCl solution, Co (solvent: 0.9% NaCl): 1080 µg/mL | Solubility of Co in water, Co (solvent: water): 990 µg/mL
